# Antibody variant affinities, Ab-91 heavy chain, assay 2

Binding partner: SARS-CoV-2 spike HR2 peptide, sequence PDVDLGDISGINAS.

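The starting antibody came from a phage panning campaign against this peptide. AAYL51 was designed without a model: most single CDR substitutions and a random sample of double and triple ones. Affinity was read by AlphaSeq, a pooled yeast mating assay with surface-displayed partners. Binding brings cells together so that they mate, and sequencing counts the barcode pairs among the diploids. A regression on co-assayed BCL2-family reference pairs converts the normalised counts of each replicate to an apparent Kd. There are three technical replicates.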

The variants keep the light chain, the linker and the frameworks of Ab-91 (scFv order VL, the linker GGGGSGGGGSGGGGS, VH).
VL: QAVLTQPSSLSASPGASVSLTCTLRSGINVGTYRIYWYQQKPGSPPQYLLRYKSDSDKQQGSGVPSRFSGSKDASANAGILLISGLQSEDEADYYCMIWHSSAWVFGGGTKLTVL
VH: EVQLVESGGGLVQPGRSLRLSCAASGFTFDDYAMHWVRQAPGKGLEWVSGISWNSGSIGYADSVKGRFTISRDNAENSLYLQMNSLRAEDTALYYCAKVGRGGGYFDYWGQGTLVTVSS

Each variant is given by its three heavy chain CDRs, as the data file delimits them; those of the parent are GFTFDDYAMH, GISWNSGSIGYADSVK, VGRGGGYFDY.
The read-out is the apparent dissociation constant on a log10 scale (nM): the lower, the stronger.
A pair that was not seen in that replicate is written "nd"; this usually means weak binding, but a binder can also be missed.
Empty control strains, which show no peptide, gave a signal in 21% of pairings with library AAYL51; the median was 4.54 and 95% of these signals were weaker than 3.26. No background was subtracted. Also given: how often the same scFv was detected with the empty control strains.

For GFTFCDYAMH / GISWNSGSIGYADSVK / VDQGGGYFDY, the assay gave nd, nd, 3.55 (controls 0 of 9).
For RFMFDDYAMH / GISWNSGSIGYADSVK / VGRGGHYFDY, the assay gave nd, nd, nd (controls 0 of 9).
For GFTFDDYAMH / GIWWNSGSIGYADSVK / VGRGGGYFDY, the assay gave 5.40, 5.03, 5.47 (controls 5 of 9).
For GFTFDDYAMH / GISWNSGSIGYADSVK / LGRGGGYFHY, the assay gave 4.47, 4.64, 5.33 (controls 7 of 9).
For GPTFDDYAMH / GIFWNYGSIGYADSVK / VGRGGGYFDY, the assay gave nd, nd, nd (controls 0 of 9).
For GFTFDDYAMH / GISRNSGSIGYADSVK / VGRGGGYVDY, the assay gave 4.15, 4.17, nd (controls 3 of 9).
For GFTFDDYAMH / GISRNSGSIGYARSVK / VGRGGGEFDY, the assay gave 4.35, 4.45, 4.07 (controls 5 of 9).
For GFTFDDYAMH / GNSWNSGSIGYADSVK / VGKGGGYFDR, the assay gave nd, nd, nd (controls 1 of 9).
For GSTFDDYAMH / GISWNSGSIGYADFVK / VGRGGGYTDY, the assay gave nd, nd, nd (controls 0 of 9).
For GFTFDDYDMH / GISCNSGSIGYADSVK / FGRGGGYFDY, the assay gave 4.83, 5.24, 4.88 (controls 3 of 9).
For GFTFDDYHMH / GISWNSGSIGYAESAK / VGRGGGYFDY, the assay gave nd, nd, nd (controls 0 of 9).
For GFTFDDYAMH / GISWNSGSIAGARSVK / VGRGGGYFDY, the assay gave 4.89, 4.39, 6.35 (controls 8 of 9).
For GFTFDDYAMH / GINWNSGSIGYADSVK / VGRSGGYMDY, the assay gave 4.47, 5.35, 4.72 (controls 9 of 9).
For GFTFDRQAMH / GISWYSGSIGYADSVK / VGRGGGYFDY, the assay gave nd, nd, nd (controls 1 of 9).
For GFTFDDYAMH / GISWNSGSIGYADSVK / VGRGGGYFAY, the assay gave 3.91, nd, nd (controls 5 of 9).
For GLTFDDYLYH / GISWNSGSIGYADSVK / VGRGGGYFDY, the assay gave nd, nd, nd (controls 0 of 9).
For GFTFDDYAMH / GISWNSGSIGYADSVE / VGRIGGYTDY, the assay gave 1.04, 1.08, 0.48 (controls 1 of 9).
For GFTFDDYAMH / GISWNSGSIGYADSVK / VGAGGWYFKY, the assay gave nd, nd, nd (controls 2 of 9).
For GFTFDDYAMH / GISWNSGSIGYADVVK / VGRGGGYFDY, the assay gave nd, nd, 4.52 (controls 2 of 9).
For GETFDDYIMH / GISVNSGSIGYADSVK / VGRGGGYFDY, the assay gave nd, nd, nd (controls 1 of 9).
For GFTFDDYAMH / HICWNSGSIGYADSVK / VGRGGGYFTY, the assay gave nd, nd, nd (controls 0 of 9).
For GFTFDDYAMH / GISWNSGSIVYRDSVK / VGRGGGYFDI, the assay gave nd, nd, nd (controls 1 of 9).
For GFTFDDYRMN / GISWNSGLIGYADSVK / VGRGGGYFDY, the assay gave 3.74, nd, nd (controls 4 of 9).
For GFTFDDYAMH / GISWNSGSIGYADSVK / VGRGVYYFDY, the assay gave nd, nd, nd (controls 0 of 9).
For GFTFDDYAMH / GIHWNSGSIGYADMVK / VGGGGGYFDY, the assay gave 5.33, nd, nd (controls 3 of 9).
For GFTLDDYANH / GRSWNSGSIGYADSVK / VGRGGGYFDY, the assay gave nd, nd, nd (controls 1 of 9).
For GFTFDDYKMH / GISWNSGSIGYAKSVK / KGRGGGYFDY, the assay gave nd, nd, nd (controls 1 of 9).
For GWTFDDYAMH / GISWNSGSTGIADSVK / VGRGGGYFDY, the assay gave 4.06, nd, nd (controls 2 of 9).
For GFDFDDYAMH / GISWNSGSIGYADSVF / VGRGGGYFLY, the assay gave nd, nd, nd (controls 3 of 9).
For GFTFDDYALH / GIFWNSGSIGYADSVK / VGRGQGYFDY, the assay gave nd, nd, nd (controls 0 of 9).
For GYTFDDYMMH / GISWNSGSIGYADSVK / VGRGGGYFHY, the assay gave nd, 5.87, nd (controls 2 of 9).
For GFGFDDYAMH / GQSWNSGSIGYADSVK / RGRGGGYFDY, the assay gave nd, nd, nd (controls 3 of 9).
For GPTFDDYAMH / GISWNSGSIGKADSVK / VGPGGGYFDY, the assay gave nd, nd, 3.79 (controls 1 of 9).
For GFNFDDYAMH / IISWNSGSIGSADSVK / VGRGGGYFDY, the assay gave 4.55, nd, nd (controls 4 of 9).
For GFTFDDYIMH / GISWNSGSIGYADSVK / VGRGGGYRDH, the assay gave nd, nd, nd (controls 0 of 9).
For GFTFGDYAMH / GISWNSGSIGYADSVE / VGRGGGDFDY, the assay gave nd, nd, nd (controls 3 of 9).
For GFTFDDYAMH / GIRWNSGSIGYADCVK / VGRIGGYFDY, the assay gave 4.53, nd, nd (controls 7 of 9).
For GFTFDQYAMF / GISENSGSIGYADSVK / VGRGGGYFDY, the assay gave nd, 3.47, nd (controls 3 of 9).
For GFTFDDYAMH / AISWNSGSIAYADSVK / VGVGGGYFDY, the assay gave nd, 6.26, 4.66 (controls 7 of 9).
For GFTFDDYAGH / GISWNSGSIGYAISVK / VGRGGGYFDY, the assay gave nd, nd, nd (controls 0 of 9).
For GFGFDDYAMH / GISWNSGPIGYADSVK / VGRGGGDFDY, the assay gave nd, nd, nd (controls 5 of 9).
For GFTFDDYAMH / GISWNSGSILYARKVK / VGRGGGYFDY, the assay gave nd, nd, 4.50 (controls 3 of 9).
For GFYFYSYAMH / GISWNSGSIGYADSVK / VGRGGGYFDY, the assay gave nd, nd, nd (controls 0 of 9).
For GFTFDDYAMH / GQSWNSGSIGEADSVK / VGRGGGYFDG, the assay gave nd, 4.45, nd (controls 2 of 9).
For GFTFDDYAMH / GISWNSGQIGYADSVK / VGRGGGVFDL, the assay gave 1.19, 1.30, 0.92 (controls 3 of 9).
For GFTLDDYAMH / GISWFSGSIGYADSVK / VGRGQGYFDY, the assay gave nd, nd, nd (controls 0 of 9).
For GFTFDDYAMH / GISWNSGSIGYADSVW / VGAGGGYFIY, the assay gave nd, nd, nd (controls 0 of 9).
For QFTFDDYAMH / GISWISGSIGYVDSVK / VGRGGGYFDY, the assay gave nd, nd, nd (controls 0 of 9).

For reference, 5 entries of the list once more:

CDR-H1	CDR-H2	CDR-H3	replicates, log10 nM	signal with controls
GFTFDRQAMH	GISWYSGSIGYADSVK	VGRGGGYFDY	nd, nd, nd	1/9
GFTFDDYAMH	GQSWNSGSIGEADSVK	VGRGGGYFDG	nd, 4.45, nd	2/9
GFNFDDYAMH	IISWNSGSIGSADSVK	VGRGGGYFDY	4.55, nd, nd	4/9
GFTFDDYAGH	GISWNSGSIGYAISVK	VGRGGGYFDY	nd, nd, nd	0/9
GFTFDDYALH	GIFWNSGSIGYADSVK	VGRGQGYFDY	nd, nd, nd	0/9

In this assay the parent's reference entry averaged 1.86; its copy inside this library read 0.88.

From the AlphaSeq antibody data of Engelhart et al. 2022 (doi:10.1038/s41597-022-01779-4), copy in the FLAb collection.